Among the data in ChEMBL document CHEMBL5725596, “Substituted imidazoles as casein kinase 1 D/E inhibitors” (2017) are IC50 values, retold here.

By UniProt entry, the sequences of proteins in these tests, tags left out. Where a name states a change or a piece, a line headed by the entry shows the natural chain unless it says otherwise.
UniProt P48730: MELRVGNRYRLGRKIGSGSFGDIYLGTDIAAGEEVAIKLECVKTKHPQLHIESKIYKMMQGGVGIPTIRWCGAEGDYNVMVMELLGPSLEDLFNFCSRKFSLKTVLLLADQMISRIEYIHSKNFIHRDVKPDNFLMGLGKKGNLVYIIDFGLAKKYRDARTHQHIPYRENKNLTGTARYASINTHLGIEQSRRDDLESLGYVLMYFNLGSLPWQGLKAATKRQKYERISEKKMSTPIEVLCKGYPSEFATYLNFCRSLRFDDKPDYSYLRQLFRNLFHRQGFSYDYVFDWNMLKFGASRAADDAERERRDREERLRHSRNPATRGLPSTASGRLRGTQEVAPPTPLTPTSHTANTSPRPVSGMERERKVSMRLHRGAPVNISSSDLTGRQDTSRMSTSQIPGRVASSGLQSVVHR

This experiment concerns the target Casein kinase I isoform delta (Homo sapiens, UniProt P48730). Nature of the experiment: Kinase Assay: The kinase assay was performed in V-bottom 384-well plates. […] The reaction was incubated at room temperature for 22 hours and terminated by adding 45 μl of 35 mM EDTA to each sample. The reaction mixture was analyzed on the Caliper LABCHIP®3000 (Caliper, Hopkinton, Mass.) by electrophoretic separation of the unphosphorylated substrate and phosphorylated product. […] Compounds were dissolved at 10 mM in dimethylsulfoxide (DMSO) and evaluated at eleven concentrations.

Broadly, the IC50 is the concentration at which inhibition is half-maximal. Turning to `O=C(Nc1cn2nc(-c3c(-c4ccc(F)cc4)ncn3C3CCN(C[C@H](O)C(F)(F)F)CC3)ccc2n1)c1ccncc1`, the IC50 was determined as 0.195 nM.
